The target in this test is T1, NYESO1-001 (peptide code; control peptide) peptide on HLA-A*02:01 (human).
T1 peptide: SLLMWITQV
Briefly: multimer staining.

B1: R52P2G11 (TCR, V domains shown)
Valpha: KNQVEQSPQSLIILEGKNCTLQCNYTVSPFSNLRWYKQDTGRGPVSLTIMTFSENTKSNGRYTATLDADTKQSSLHITASQLSDSASYICVVSAYGKLQFGAGTQVVVTP
Vbeta: DAGVIQSPRHEVTEMGQEVTLRCKPISGHNSLFWYRQTMMRGLELLIYFNNNVPIDDSGMPEDRFSAKMPNASFSTLKIQPSEPRDSAVYFCASSLGSPDGNQPQHFGDGTRLSIL
Take B1: the binding result is recorded as “no recognition”.

B2: R53P2A9 (TCR, V domains shown)
Valpha: AQTVTQSQPEMSVQEAETVTLSCTYDTSESDYYLFWYKQPPSRQMILVIRQEAYKQQNATENRFSVNFQKAAKSFSLKISDSQLGDAAMYFCAYNSYAGGTSYGKLTFGQGTILTVHP
Vbeta: DAGVTQSPTHLIKTRGQQVTLRCSPISGHKSVSWYQQVLGQGPQFIFQYYEKEERGRGNFPDRFSARQFPNYSSELNVNALLLGDSALYLCASSLDGTSEQYFGPGTRLTVT
As to B2, the binding result is on record as “no recognition”.

These data come from patent publication US20180306789A1 (published 2018).
